The numbers were not newly measured in patent US20050014734A1, “Modulation of interleukin-10 by DHEA” (Genovate Biotechnology Co., Ltd., priority 2003, published 2005), which cites them from elsewhere.

The conditions of the series: oral administration; cited from earlier work.

Regarding `C[C@]12CC[C@H](O)CC1=CC[C@@H]1[C@@H]2CC[C@]2(C)C(=O)CC[C@@H]12` [DHEA form I, dehydroepiandrosterone], the “Uptake by the GI tract” value is listed as “good uptake”. As for `C[C@]12CC[C@H](O)CC1=CC[C@@H]1[C@@H]2CC[C@]2(C)C(=O)CC[C@@H]12` [DHEA form II, dehydroepiandrosterone], the “Uptake by the GI tract” value is on record as “good uptake”.
